This note sets out measurements from ChEMBL document CHEMBL4804282, “Quinoline-based compounds and methods of inhibiting cdk8/19” (2020).

Protein sequences, listed by entry. Tags and fused reporters are not part of them. Lines headed by an entry give the natural chain unless they say otherwise; changes in a name come on top.
UniProt P49336: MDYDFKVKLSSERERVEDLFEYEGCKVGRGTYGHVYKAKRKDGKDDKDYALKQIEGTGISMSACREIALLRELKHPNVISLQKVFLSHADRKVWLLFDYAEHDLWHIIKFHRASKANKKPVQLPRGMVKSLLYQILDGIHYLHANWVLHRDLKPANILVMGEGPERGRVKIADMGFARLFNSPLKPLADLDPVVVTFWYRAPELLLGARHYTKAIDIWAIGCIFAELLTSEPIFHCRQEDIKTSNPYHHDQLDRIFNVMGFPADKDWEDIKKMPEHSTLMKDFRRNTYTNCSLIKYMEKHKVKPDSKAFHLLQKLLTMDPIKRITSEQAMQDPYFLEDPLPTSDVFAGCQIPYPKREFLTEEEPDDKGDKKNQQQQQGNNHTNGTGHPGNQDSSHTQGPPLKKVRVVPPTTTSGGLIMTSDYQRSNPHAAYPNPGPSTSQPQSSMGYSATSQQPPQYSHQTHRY
UniProt Q9BWU1: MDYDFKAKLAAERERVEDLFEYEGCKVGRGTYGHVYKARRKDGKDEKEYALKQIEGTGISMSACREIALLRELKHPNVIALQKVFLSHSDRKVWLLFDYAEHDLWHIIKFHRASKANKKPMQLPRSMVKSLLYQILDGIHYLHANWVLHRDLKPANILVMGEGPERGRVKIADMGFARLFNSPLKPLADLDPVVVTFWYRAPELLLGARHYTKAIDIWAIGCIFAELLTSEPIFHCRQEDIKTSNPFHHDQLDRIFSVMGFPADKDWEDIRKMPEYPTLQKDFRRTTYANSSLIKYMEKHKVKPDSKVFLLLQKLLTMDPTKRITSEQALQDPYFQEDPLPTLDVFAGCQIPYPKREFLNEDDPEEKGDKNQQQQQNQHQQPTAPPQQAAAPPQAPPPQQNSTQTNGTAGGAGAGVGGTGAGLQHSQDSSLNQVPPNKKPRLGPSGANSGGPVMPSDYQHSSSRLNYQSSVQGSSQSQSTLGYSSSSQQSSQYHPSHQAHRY

Calls of active or inactive are those of the source. The rule behind the calls is not given here.

Test [1] has as its target T1, Cyclin-dependent kinase 8/19 (Homo sapiens) (UniProt P49336+Q9BWU1). Kind of test: Inhibition of CDK8/CDK19 in HEK293 cells assessed as reduction in JUN expression at 1 uM incubated for 2 hrs and measured after 24 hrs of compound wash-off. The class given is cell-based.
The target of test [2] is T1, Cyclin-dependent kinase 8/19 (Homo sapiens). Kind of test: Inhibition of CDK8/CDK19 in HEK293 cells assessed as reduction in MYC expression at 1 uM incubated for 2 hrs and measured after 24 hrs of compound wash-off. Format: cell-based.

For the compound `CN1CCN(C(=O)c2ccc3cc(CCNc4ncnc5ccc(C#N)cc45)ccc3c2)CC1` [SENEXIN B], the inhibition result in test [1] and in test [2] was “Active” in each case.
